Measurements from ChEMBL document CHEMBL1156187, “Discovery of a selective small-molecule melanocortin-4 receptor agonist with efficacy in a pilot study of sexual dysfunction in humans” (J Med Chem, 2010).

Chains of the proteins cited; added tags and fusions are not shown. Lines headed by an entry give the natural chain unless they say otherwise; changes in a name come on top.
UniProt Q12809: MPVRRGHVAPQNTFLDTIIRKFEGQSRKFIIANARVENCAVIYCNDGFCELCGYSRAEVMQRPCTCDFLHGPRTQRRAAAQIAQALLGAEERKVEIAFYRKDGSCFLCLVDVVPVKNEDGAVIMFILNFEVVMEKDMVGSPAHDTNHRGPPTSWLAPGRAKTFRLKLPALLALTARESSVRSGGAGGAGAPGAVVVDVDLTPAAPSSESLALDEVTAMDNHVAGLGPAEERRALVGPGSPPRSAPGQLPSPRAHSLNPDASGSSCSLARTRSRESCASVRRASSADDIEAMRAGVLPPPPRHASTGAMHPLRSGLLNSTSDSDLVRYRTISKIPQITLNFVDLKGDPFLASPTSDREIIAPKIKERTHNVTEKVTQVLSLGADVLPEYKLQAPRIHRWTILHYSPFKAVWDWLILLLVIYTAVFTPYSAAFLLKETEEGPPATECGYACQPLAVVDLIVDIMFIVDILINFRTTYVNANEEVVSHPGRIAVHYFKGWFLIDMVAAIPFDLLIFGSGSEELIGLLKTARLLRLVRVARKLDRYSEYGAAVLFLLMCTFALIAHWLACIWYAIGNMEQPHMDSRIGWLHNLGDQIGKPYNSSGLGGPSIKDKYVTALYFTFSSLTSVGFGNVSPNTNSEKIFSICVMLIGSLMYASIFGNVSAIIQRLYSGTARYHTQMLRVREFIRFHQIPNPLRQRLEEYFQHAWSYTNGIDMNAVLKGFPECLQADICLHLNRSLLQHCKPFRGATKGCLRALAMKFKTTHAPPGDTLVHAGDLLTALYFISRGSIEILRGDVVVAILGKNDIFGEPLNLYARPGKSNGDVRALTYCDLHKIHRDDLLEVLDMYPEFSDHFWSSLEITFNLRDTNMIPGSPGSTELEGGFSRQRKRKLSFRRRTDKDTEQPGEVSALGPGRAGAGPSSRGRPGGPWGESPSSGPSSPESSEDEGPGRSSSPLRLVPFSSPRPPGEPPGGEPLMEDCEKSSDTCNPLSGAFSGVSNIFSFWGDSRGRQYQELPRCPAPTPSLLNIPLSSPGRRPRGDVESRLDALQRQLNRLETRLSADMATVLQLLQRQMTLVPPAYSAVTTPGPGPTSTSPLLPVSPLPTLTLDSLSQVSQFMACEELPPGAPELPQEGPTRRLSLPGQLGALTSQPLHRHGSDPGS

Molecular target: Voltage-gated inwardly rectifying potassium channel KCNH2 (Homo sapiens, UniProt Q12809)

C[C@@H]1CN(C(=O)[C@H]2CN(C3CCC3)C[C@@H]2c2ccc(F)cc2F)C[C@H](C)[C@@]1(O)c1ccccc1
Ki: 5.87 µM

C[C@@H]1CN(C(=O)[C@@H]2CN(C(C)(C)C)C[C@H]2c2ccc(F)cc2F)C[C@H](C)[C@@]1(O)c1ccc(F)cc1.Cl
Ki: 7.91 µM
